Here are results for one molecule from PubChem BioAssay AID1508591.

The conditions of this data set: rat; liver microsomes; pH 7.4; 15.0 min; 1.0 µM. (In general: Liver microsomes are a subcellular fraction often used to study metabolism.)

By half-life is commonly meant the time in which the quantity being followed falls by half. Low readings indicate rapid decline, high ones slow decline. `CC(=O)NC(SC(=S)N(C)C)C(Cl)(Cl)Cl` (stereo unspecified) showed a half-life of 1.4 min.
